This passage reports Kd results from article PMC4856418 (FEBS Open Bio, 2016).

Protein sequences, listed by entry. Tags and fused reporters are not part of them.
UniProt Q9NVS9, whole entry R95C: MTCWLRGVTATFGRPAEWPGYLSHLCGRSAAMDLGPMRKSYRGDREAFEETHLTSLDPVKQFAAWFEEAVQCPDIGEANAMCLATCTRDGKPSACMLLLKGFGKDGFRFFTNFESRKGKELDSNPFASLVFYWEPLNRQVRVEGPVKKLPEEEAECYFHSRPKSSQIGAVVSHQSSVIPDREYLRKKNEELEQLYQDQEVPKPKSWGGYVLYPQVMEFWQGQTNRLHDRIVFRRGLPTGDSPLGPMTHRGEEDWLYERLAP

Assay [1] has as its target T1, hPNPO (human pyridoxine 5'-phosphate oxidase) (Homo sapiens, UniProt Q9NVS9).
T1 construct: gene PNPO
The experiment in a line: biochemical.

Assay [2] concerns the target T2, hPNPO (human pyridoxine 5'-phosphate oxidase) (Homo sapiens, UniProt Q9NVS9, R95C).
T2 construct: gene PNPO
The experiment in a line: biochemical.

Turning to `Cc1cc2nc3c(=O)[nH]c(=O)nc-3n(C[C@H](O)[C@H](O)[C@H](O)COP(=O)(O)O)c2cc1C` [FMN], the results for the Kd in assay [1] and in assay [2] were 24 ± 3 nM and 354 ± 12 nM, respectively.
